## Binding of CDR-mutated scFvs to a peptide of the spike HR2 region

From the AlphaSeq antibody data of Li et al. 2023 (doi:10.1038/s41467-023-39022-2), copy in the FLAb collection.

Antigen: PDVDLGDISGINAS, a 14-residue peptide of the SARS-CoV-2 spike HR2 region.

Each scFv is VH, a (GGGGS)3 linker, VL, as in the parent Ab-14, and differs from it in the CDRs of the heavy chain only.
VH: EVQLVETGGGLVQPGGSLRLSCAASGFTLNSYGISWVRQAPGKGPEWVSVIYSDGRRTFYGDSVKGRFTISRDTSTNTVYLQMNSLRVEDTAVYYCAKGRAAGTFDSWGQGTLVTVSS
VL: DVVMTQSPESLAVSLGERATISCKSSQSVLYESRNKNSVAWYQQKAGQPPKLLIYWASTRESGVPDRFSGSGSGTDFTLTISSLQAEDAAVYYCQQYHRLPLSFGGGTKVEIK

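The parent was found by panning a naive human phage display library on the peptide. The variants were designed computationally from a first round of random CDR variants and then made and measured. Group labels follow the data file (Ctrl: baseline library sampled from a position-specific scoring matrix, with some repeated check sequences; Rand: our label for a block that the file lists under HC and that is probably the random mutants of the ten best first-round binders; En: ensemble of fine-tuned language models; GP: Gaussian process model; GPLM: also part of the Gaussian process libraries; HC: hill climbing; Gen: genetic algorithm; Gibbs: Gibbs sampling; a sequence that several methods proposed may carry one label only). The scFvs were displayed on barcoded MATa yeast, the peptide on MATalpha yeast. Mating (16 h, 30 °C) was followed by selection of diploids and sequencing of their barcodes. The ratio of observed to expected reads was calibrated, replicate by replicate, on BCL2-family standards whose Kd was known from biolayer interferometry. There are six technical replicates.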

The parent's heavy chain CDRs are GFTLNSYGIS, VIYSDGRRTFYGDSVK, GRAAGTFDS; each variant's own CDRs replace them letter for letter. The Kd shown is the geometric mean over detected replicates; a lower Kd is a better binder. "nd" means that the variant was in the library but no mating with the target was seen in any replicate; the authors take this as a sign of poor binding, and no number exists. Order: sorted from the lowest average up, undetected variants last. The parent sequence was in this pool as ten entries: three were never detected, three once, and four in most replicates, with averages from 2.2 nM to 240 nM.

apparent Kd	replicates with signal	CDR-H1	CDR-H2	CDR-H3	group
110 pM	6/6	GFDLNEYGIS	VIYADGMRTAYANDVK	GETAGTFDL	En_Gen
170 pM	6/6	GFDLNEYGIS	VIYADGRRTFYADSVK	GQVAGTFDV	En_HC
230 pM	5/6	GFDLNEYGIS	VIYADGMRTFYKDSVK	GEAAGTFDQ	En_HC
250 pM	6/6	GFSLDEYGIS	VIYADGMRTAYADSVK	GNVAGTFDL	En_Gen
310 pM	6/6	GFDLNEYGIS	VIYADGRRTAYIDSVK	GEVAGTFDN	En_HC
310 pM	6/6	GFDLNEYGIS	VIYADGQRTFYADSVK	GTNAGTFDQ	En_HC
330 pM	6/6	GFDLNEYGIS	VIYADGMRKAYADSVK	GNTAGTFDV	En_Gen
380 pM	6/6	GFDLNEYGIS	VIYADGRRTAYTDSVK	GEIAGTFDV	En_HC
390 pM	6/6	GFDLDEYGIS	VIYADGVRTYYADSVK	GNVAGTFDL	En_Gen
390 pM	6/6	GFDLNEYGIS	VIYADGRRTAYTDSVK	GTNAGTFDM	En_HC
420 pM	6/6	GFDLNEYGIS	VIYADGKRTAYVDKVK	GNVAGTFDV	En_Gen
440 pM	6/6	GFDLNEYGIS	VIYADGMRTFYSDSVK	GTNAGTFDM	En_HC
450 pM	6/6	GFGLDEYGIS	VIYADGRRTFYADSVK	GKNAGTFDM	En_HC
470 pM	6/6	GFDLNEYGIS	VIYADGRRTFYSDSVK	GANAGTFDS	En_HC
480 pM	6/6	GFDLEEYGIS	VIYADGKRTFYADKVK	GENAGTFDI	En_HC
630 pM	6/6	GFGLNEYGIS	VIYADGRRTFYADSVK	GNQAGTFDQ	En_HC
670 pM	6/6	GFTLDRYGIS	VIYADGRRTFYGDSVK	GRLAGTFDS	GP_HC
710 pM	6/6	GFDLDEYGIS	VIYADGQRTVYADSVK	GNVAGTFDL	En_Gen
740 pM	6/6	GFDLNEYGIS	VIYADGRRTAYSDSVK	GENGGTFDS	En_HC
750 pM	6/6	GFSLNSYGIS	VIYADGRRTFYGDSVK	GHAAGTFDS	GPLM_Gen
770 pM	6/6	GFDLDEYGIS	VIYADGKRTAYADDVK	GTNAGTFDV	En_Gen
790 pM	6/6	GFDLEDYGIS	VIYADGRRTYYADSVK	GEAAGTFDL	En_HC
820 pM	6/6	GFDLNEYGIS	VIYADGMRTSYADDVK	GENAGTFDM	En_Gen
940 pM	6/6	GFDLNSYGIS	VIYSDGRRTFYGDNVK	GRQAGTFDS	GP_Gen
980 pM	6/6	GFSLNSYGIS	VIYSDGRRTFYSDDVK	GKAAGTFDS	GPLM_Gibbs
1.2 nM	6/6	GFSLNQYGIS	VIYSDGRRTFYGDSVK	GQAAGTFDS	GPLM_Gen
1.4 nM	6/6	GFDLEEYGIS	VIYADGRRTAYADSVK	GNQAGTFDV	En_Gen
1.5 nM	6/6	GFDLNEYGIS	VIYADGMRTAYSDNVK	GNVAGTFDQ	En_Gen
1.6 nM	6/6	GFDLNEYGIS	VIYADGMRTYYADDVK	GENAGTFDL	En_Gen
2.2 nM	6/6	GFTLNSYGIS	VIYSDGRRTFYADSVK	GKVAGTFDS	GPLM_Gen
2.4 nM	1/6	GFYLNEYGIS	VIYSDGRRTFYGDSVK	GRNAGTFDS	GP_Gen
2.5 nM	6/6	GFSLNSYGIS	VIYSDGRRTFYDDNVK	GRVAGTFDS	GP_Gibbs
2.7 nM	6/6	EFDIQEYGIS	VIYADGKREAYKDNFK	GNVAGTFDA	En_Gibbs
2.9 nM	6/6	GFELNSYGIS	VIYSDGRRTFYADSVK	GRMAGTFDS	GPLM_Gen
3.0 nM	6/6	GFTLNDYGIS	VIYSDGRRTFYGDSVK	GRIAGTFDI	GPLM_HC
5.3 nM	6/6	GFTLNEYGIS	VIYSDGRRTFYTDSVK	GEQAGTFDS	GPLM_HC
5.9 nM	6/6	GFELNEYGIS	VIYSDGRRTFYGDSVK	GRAAGTFDK	GPLM_Gen
10 nM	6/6	GFDLNEYGIS	VIYADGRRTFYADSVK	GEAAGTFFL	En_HC
11 nM	6/6	GFTLNSYGIS	VIYSDGRRTFYGDDVK	GNVAGTFDK	GP_Gibbs
13 nM	5/6	GFDLNEYGIS	VIYADGMRTSYADSVK	GTNAGTFDQ	En_HC
14 nM	6/6	GFTLNSYGIS	VIYSDGVRTFYADSVD	GRAAGTFDS	Ctrl
15 nM	6/6	GFKLNQYGIS	VIYSDGRRTFYADSVK	GRAAGTFDS	GP_HC
24 nM	4/6	GFDLNEYGIS	VIYADGKRTFYSDSVK	GNEGGTFDV	En_HC
56 nM	6/6	GFDLNEYGIS	VIYADGVRTSYVDSVK	GETAGTFDV	En_HC
63 nM	3/6	GFTLPDYGIS	VIYSDGRRTQYIDSVK	GRAAGTFDS	Rand
80 nM	1/6	GFHLDSYGIS	VIYSDGRRTFYHDSVK	GRAKGTNES	Ctrl
82 nM	3/6	KFSLNEYGIS	VIYSDGRRTFYGDSVK	GRTAGTFDK	GPLM_Gibbs
84 nM	1/6	GQNLDEYGIS	VIYADGMRKQYADSVK	GNMLVGMVA	En_Gibbs
100 nM	1/6	GFTLNSYGIS	VIYSDGFRTMYGDSVK	GSAAGTFDS	Ctrl
100 nM	3/6	GETLNSYGIS	VIYSDGRRTFYGDSVK	GEAAGTFDS	Ctrl
180 nM	4/6	GFTINSYGIS	VIYSDGRRTAYEDSVK	DRAAGTFDS	Ctrl
250 nM	5/6	GFTLDSYGIS	VIYSDGRRTFYADRVK	GRAAGTFDK	GP_Gibbs
300 nM	2/6	GKSLDEYGVS	VIYADGVRQSYADDVK	GGIAGTFLY	En_Gibbs
550 nM	1/6	GFTLNEYGIS	VIYSDGWRTFYGDSVK	GMAAGTFDN	Ctrl
nd	0/6	GYTLNDYGIS	VIYSDGRRTFYGDSVK	GRAAGLFDS	Ctrl
nd	0/6	GFDLNSYGIS	VIYSDGRRTFYGDSVK	GRAAGKFWS	GP_HC
nd	0/6	GFSLNEYGIS	VIYSDGRRTFYGDSVK	GPAAGTFDS	GPLM_Gen
nd	0/6	GFDLNEYGIS	VIYADGRRTQYIDSVK	GNQAGTFDK	En_HC
nd	0/6	GFKLDEQGIS	VIYADGRRVGYTDSVK	GTNGLNFTL	En_Gibbs
nd	0/6	GFDLEEYGIS	VIYADGKRSFVSNSVK	GQLGNAFDM	En_Gibbs
nd	0/6	GEDLNEYGVS	VIYADGIRSTYADSFK	GKVGAAFFQ	En_Gibbs
nd	0/6	GETLNDYGIS	VIYSDGRRTEYADSVK	GSAAGTFDS	Ctrl
nd	0/6	GFTLNEYGIS	VIYSDGRRTFYGDAVK	GRTAGTFIS	GP_HC
nd	0/6	GDDLDEVGIS	VIYADGVRNQYIQSVK	GHVGGTFDY	En_Gibbs
nd	0/6	KFTLNSYGIS	VIYSDGRRTFYGDSVK	GRLAGTWDS	Ctrl
nd	0/6	GFDINEYGVS	VIYADGMRTAYTDSVK	GEGAWIALI	En_Gibbs
nd	0/6	GFGINEYGIS	VIYADGMRSAYANSVK	GAHAGGMVW	En_Gibbs
nd	0/6	GFKIDEYGIS	VIYADGMRAHYSDAVK	GVKGFNVVM	En_Gibbs
nd	0/6	GFTLNSYGIS	VIYSDGRRTFYGDSVK	GRAAGTFDG	Ctrl
nd	0/6	GFDLNSYGIS	VIYSDGRRTFYGDSVK	GRAAGMFRS	GP_HC
nd	0/6	GFTVNSYGIS	VIYSDGRRTFYSDSVK	GRNHGTFDS	Rand
nd	0/6	GFVLQEYGIS	VIYADGMRTAYAEDFK	GVTGVNLHI	En_Gibbs
nd	0/6	GQDLSEYGIS	VIYADGVRRSYANSVK	GNTSGNFSQ	En_Gibbs

The range of this assay differs from that of the first round, and the authors advise against merging the two. In the paper, a design with two or fewer of six values counts as a poor binder. Nonspecific signal, from three strains lacking the peptide, appeared in 1% of pairings of all heavy chain designs, centred on 120 nM (5% of these signals below 7.0 nM); values are not corrected for it.